Assay results published in PubChem BioAssay AID488899 (Broad Institute, 2010).
The list shows a part of the results, in another mix than the full data. Calls of active or inactive are those of the source.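 Rule for the calls: active = mean inhibition across replicates of 60% or more, whatever share of single replicates reaches that level; inconclusive = some that reach 60%, reason not given; inactive = mean inhibition across replicates below 60%.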

assay: inhibitors of MITF-dependent TRPM1 promoter reporter, primary screen, cell-based, SK-MEL-5, single point, luciferase (AID 488899); conditions: SK-MEL-5 TRPM1 promoter luciferase, 24 h; at 12.5 µM; hits give high values

Compound	inhibition
COc1cc(I)ccc1[As](=O)(O)O	inactive: -8.32%
O=P1(N(CCCl)CCCl)OCCCN1CCCl (configuration not stated)	inactive: 3.29%
O=P1(N(CCCl)CCCl)Nc2ccccc2N1	inactive: 1.07%
CCOC(=O)c1ccc(NC(=O)C(C)(CCl)SC)cc1 (configuration not stated)	inactive: -40.6%
O=C(OC1CN2CCC1CC2)c1cccc([N+](=O)[O-])c1 (configuration not stated)	inactive: 7.98%
CCC(C)N(CC(C)C)C(=S)SC(NC(C)=O)C(Cl)(Cl)Cl (configuration not stated)	inactive: 26.9%
COP1(=S)c2c(C)nn(CCC#N)c2N=C(c2ccc(F)cc2)N1C (configuration not stated)	inactive: 0.336%
O=C(COc1ccccc1)OC1CN2CCC1CC2 (configuration not stated)	inactive: 5.61%
O=C(Nc1ccncc1[N+](=O)[O-])c1ccc([N+](=O)[O-])cc1[N+](=O)[O-]	inactive: 18.8%
CCOC(=O)Nc1cccc([As](=O)(O)O)c1	inactive: 0.996%
O=[N+]([O-])c1ccc(Nc2ccc(Oc3ccc([N+](=O)[O-])cc3[N+](=O)[O-])cc2)c([N+](=O)[O-])c1	inactive: -4.18%
O=P(Nc1ccccn1)(c1cccc2ccccc12)c1cccc2ccccc12	inactive: -7.69%
Cc1cc(SC(NC=O)C(Cl)(Cl)Cl)ncn1 (configuration not stated)	inactive: -5.16%
CC1CCNP(=O)(N(CCCl)CCCl)O1 (configuration not stated)	inactive: 7.74%
CCOC(=O)Nc1ccc([As](=O)(O)O)c(O)c1	inactive: 2.91%
CCCCOc1ccc(C(=O)NCC2(N3CCCCC3)CCCCC2)cc1OC	inactive: -10.8%
Cc1cc(SC(NC(=O)c2ccccc2)C(Cl)(Cl)Cl)nc(C(C)C)n1 (configuration not stated)	inactive: 6.18%
CC(C)(C)C(=O)NC(Sc1ccncn1)C(Cl)(Cl)Cl (configuration not stated)	inactive: -6.68%
O=[N+]([O-])c1ncn(CCn2ncnc2[N+](=O)[O-])n1	inactive: -1.7%
O=[N+]([O-])c1cccc(NC2=NCC(CBr)S2)c1 (configuration not stated)	inactive: -2.69%
COC(=O)C1(C)COP(=O)(Nc2ccccc2)OC1 (configuration not stated)	inactive: 0.229%
O=C(O)CNc1ccc([As](=O)(O)O)cc1	inactive: -7.17%
O=P1(N(CCCl)CCCl)OCCCS1 (configuration not stated)	inactive: -4.01%
O=C(Nc1cc([As](=O)(O)O)ccc1O)c1ccccc1	inactive: 4.87%
Nc1ccc([As](=O)(O)c2ccc(N)cc2)cc1	inactive: 10.1%

Compound	inhibition
C[N+]1=C2C=CC=CC=C2SC12C([N+](=O)[O-])=CC([N+](=O)[O-])=C[C-]2[N+](=O)[O-] (configuration not stated)	active: 67%
CCN(/C(=N/P(=O)(N1CCOCC1)N1CCOCC1)N1CCOCC1)c1ccc(OC)cc1	inactive: -4.43%
CC(C)=N/N=C(\N)N[N+](=O)[O-]	inactive: 3%
CN(C)C(=O)OCCc1n(C)cc[n+]1C	inactive: -11.9%
CC1CCN(C(=O)Oc2c(Cl)cc(Cl)c3cccnc23)CC1	inactive: -4.64%
COc1ccc(C2=NCC(CBr)S2)cc1 (configuration not stated)	inactive: -13.4%
O=[N+]([O-])c1cccc2n[nH]nc12	inactive: -2.69%
CC(=O)N1C2C3N(C(C)=O)C1C1N(C(C)=O)C(C(N1C(C)=O)N3C(C)=O)N2C(C)=O	inactive: 5.14%
Cc1ccc(NP(=O)(Oc2ccccc2)Oc2ccccc2)nc1	inactive: -1.95%
CCc1nc2c(n1)c1c(non1O)c1c2no[n+]1[O-]	active: 62.6%
O=[N+]([O-])c1cc([N+](=O)[O-])c(CCNc2ccccc2)c([N+](=O)[O-])c1	inactive: 36.3%
CC(C)CC(=O)NC(Sc1ccc(Cl)cc1)C(Cl)(Cl)Cl (configuration not stated)	inactive: 2.1%
Nc1cc(N)c2nonc2c1[N+](=O)[O-]	inactive: 9.85%
Oc1ccccc1CNc1ccccn1	inactive: -13.6%
O=C(NC(Sc1ccncn1)C(Cl)(Cl)Cl)c1ccccc1 (configuration not stated)	inactive: 8.87%
NC(=O)c1cc([N+](=O)[O-])cc([N+](=O)[O-])c1N	inactive: 5.96%
CN(C(=O)Cc1ccc(Cl)c(Cl)c1)[C@H]1CCCC[C@H]1N1CCCC1	inactive: -11.9%
Cc1ccc(N/C(=N/P(=O)(N2CCOCC2)N2CCOCC2)N2CCOCC2)cc1	inactive: 4.52%
COc1ccccc1OP(=O)(Nc1ccc(C)cn1)Oc1ccccc1OC	inactive: 8.47%
Clc1ccc(Cl)c(NC2=NCC(CBr)S2)c1 (configuration not stated)	inactive: 9.71%
CN1CCCC(OC(=O)C(c2ccccc2)c2ccccc2)C1 (configuration not stated)	inactive: -0.615%
CCN(N=Nc1nonc1N)c1nonc1N	inactive: -6.34%
Nc1cccc2ccc([As](=O)(O)O)cc12	inactive: 13.5%
O=C(O)c1ccccc1[As](=O)(O)O	inactive: -2.24%
CC(=O)Nc1ccc([As](=O)(O)O)cc1	inactive: -7.31%

Compound	inhibition
CCCC1OP(N)(=O)OCC1CC (configuration not stated)	inactive: 1.39%
O=P(Nc1nc2ccc(Cl)cc2s1)(c1ccccc1)c1ccccc1	inactive: 11.6%
CCOP(=O)(Nc1ccccc1)OCC	inactive: 5.18%
Cc1cc(SC(NC(=O)c2ccc(F)cc2)C(Cl)(Cl)Cl)ncn1 (configuration not stated)	inactive: -1.63%
Cc1ccc(NP(=O)(Oc2ccccc2F)Oc2ccccc2F)nc1	inactive: -0.296%
CN(C(=O)Cc1ccc(Cl)c(Cl)c1)[C@H]1CCCC[C@@H]1N1CCCC1	inactive: -0.549%
COC(=O)c1cc2c(s1)N=C(c1ccccc1)N(C)P2(=O)N1CCOCC1 (configuration not stated)	inactive: -0.484%
CC(=O)NC(SC(=S)N(CC(C)C)CC(C)C)C(Cl)(Cl)Cl (configuration not stated)	inactive: 4.1%
Cc1ccc(OP(=O)(Nc2ccccn2)Oc2ccc(C)cc2)cc1	inactive: 18.2%
O=C(OC1CN2CCC1CC2)c1ccccc1 (configuration not stated)	inactive: 5.46%
CCC(=O)N1C2C3N(C(=O)CC)C1C1N(C(=O)CC)C(C(N1C(=O)CC)N3C(=O)CC)N2C(=O)CC	inactive: -10.2%
Cc1ccccc1OP(=O)(Nc1ccccn1)Oc1ccccc1C	inactive: -8.95%
CC(NC(=O)COC(=O)C(O)(c1ccccc1)c1ccccc1)c1ccccc1 (configuration not stated)	inactive: 1.39%
CN(C)C(=O)Oc1noc2ccccc12	inactive: -6.62%
O=c1c2cc([N+](=O)[O-])ccc2[nH]c2c([N+](=O)[O-])cc([N+](=O)[O-])cc12	active: 73.2%
CCNC(=S)/N=C(\N)N[N+](=O)[O-]	inactive: -0.144%
O=C(NC1CCS(=O)(=O)C1)NP(=S)(Oc1ccccc1)Oc1ccccc1 (configuration not stated)	inactive: 4.29%
c1ccc(-c2nn[nH]n2)c(-c2nn[nH]n2)c1	inactive: -4.98%
Cc1ccc(NP(=O)(Oc2cccc(C)c2)Oc2cccc(C)c2)nc1	inactive: 11.5%
O=P1(N(CCCl)CCCl)OCCC2CCCCN21 (configuration not stated)	inactive: 12.1%
N#C/C(=C\c1ccc(N(CCBr)CCBr)cc1)C(N)=O	inactive: 4.83%
CC(=O)c1ccc(N2CC2c2ccncc2)cc1 (configuration not stated)	inactive: 16.5%
COC(=O)C1(C)COP(=O)(NCc2ccccc2)OC1 (configuration not stated)	inactive: -5.23%
Cc1ccccc1CN(C)C(=O)COC(=O)C(O)(c1ccccc1)c1ccccc1	inactive: -10.2%
C[C@@H]1C=CCP(=O)(Oc2ccccc2)O1 (some centres not stated)	inactive: 1.98%

Compound	inhibition
C[C@H]1OP(=O)(Oc2ccccc2)C[C@@H]2O[C@@H]21 (some centres not stated)	inactive: 0.633%
CC(=O)Nc1ccc([As](=O)(O)O)c(O)c1	inactive: -2.12%
CC(=O)Nc1ccc(Oc2c([N+](=O)[O-])cc([N+](=O)[O-])cc2[N+](=O)[O-])cc1	inactive: 2.09%
O=P1(Nc2nc3ccc(Cl)cc3s2)COc2ccccc2O1 (configuration not stated)	inactive: -6.54%
CCOc1ccc(C2=NCC(CBr)S2)cc1 (configuration not stated)	inactive: -3.49%
CCc1cc(O)c([N+](=O)[O-])c(C)c1[N+](=O)[O-]	inactive: 1.51%
CC(C)(C)C(=O)NC(Sc1ccccc1)C(Cl)(Cl)Cl (configuration not stated)	inactive: -9.14%
CC(C)C(=O)NC(Sc1ccccc1)C(Cl)(Cl)Cl (configuration not stated)	inactive: 6.77%
O=P(Nc1nccs1)(c1ccccc1)c1ccccc1	inactive: -0.51%
c1nnnn1CCn1cnnn1	inactive: 10%
O=[N+]([O-])c1ccc(O)c(/C=N/Nc2ccc([N+](=O)[O-])cc2[N+](=O)[O-])c1	inactive: 36.8%
CC(=O)NC(SC(=S)N(C)C)C(Cl)(Cl)Cl (configuration not stated)	inactive: 36.1%
O=[N+]([O-])c1ncn(CCn2cnc([N+](=O)[O-])n2)n1	inactive: 9.33%
O=[As](O)(c1ccccc1)c1ccc(O)cc1	inactive: -1.98%
Nc1ccc([As](=O)(O)c2ccc([N+](=O)[O-])cc2)cc1	inactive: -0.198%
C(Cc1nn[nH]n1)Cc1nn[nH]n1	inactive: -1.29%
O=C(OC1CN2CCC1CC2)c1cccc(Cl)c1 (configuration not stated)	inactive: -9.66%
COc1ccc(N)c([N+](=O)[O-])c1[N+](=O)[O-]	inactive: -8.62%
O=P(Nc1ccccn1)(c1ccc(Br)cc1)c1ccc(Br)cc1	inactive: -0.961%
CN(C)C1(CNC(=O)c2ccc(Cl)c(S(N)(=O)=O)c2)CCCCC1	inactive: 6.89%
O=P(Nc1nc2ccccc2s1)(c1ccccc1)c1ccccc1	inactive: -7.98%
C[C@H]1OP(=O)(Oc2ccccc2)[C@H](O)[C@H](O)[C@H]1N=[N+]=[N-] (some centres not stated)	inactive: 5.3%
